In this assay the test system is mammary tumors of MMTV-Neu (YD) mice. Briefly: Treatment of tumor-bearing MMTV-Neu(YD) mice, tumor volume by caliper. The conditions noted are these: Neu(YD)/b4-WT and Neu(YD)/b4-1355T mice; single dose 10 mg/Kg, day 21. In kind it is in vivo.

These results are taken from patent US20080317752A1, “Inhibition of Tumorigenesis by Inhibition of a6b4 Integrin” (Sloan-Kettering Institute for Cancer Research, priority 2005, published 2008).

For the compound `COc1cccc2c1C(=O)c1c(O)c3c(c(O)c1C2=O)C[C@@](O)(C(=O)CO)C[C@@H]3O[C@H]1C[C@H](N)[C@H](O)[C@H](C)O1` [Doxorubicin], the “growth rate of tumors” value is “reduced the growth rate of tumors in Neu(YD)/b4-WT and Neu(YD)/b4-1355T mice by a similar extent”.
